These results are taken from PubChem BioAssay AID862 (The Scripps Research Institute Molecular Screening Center, 2007).

The entries are a selection whose mix differs from that of the whole data set. Some results for these compounds are left out of this collection, so the calls shown say nothing about other tests. The source made the active and inactive calls.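 How the source made its calls: active means inhibition above the mean inhibition across all screened compounds plus 3 SD (cut at about 44% in these data); inactive means the rest.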

As a reminder, the inhibition is the relative decrease from the control value, in per cent.

A short description of the test: blockers of STAT3 transcriptional signaling – U3A cells, luciferase, luminescence, MLSCN library, primary screen (AID 862).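 Further: 0% = DMSO only wells and 100% = 100 µM nifuroxazide control wells.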 As to conditions: IL-6 STAT3-luciferase reporter, at 5.5 µM, stronger effect = higher value, host cell line lacks STAT1. (In general: Reporter assays use an easily measured gene product as a stand-in for the process of interest.)
Turning to `O=C(OC1CN2CCC1CC2)C(CO)(c1ccccc1)c1ccccc1` (centres undefined), the inhibition is inactive: 5.1%.

For the molecule `CN(C)c1cccc(C(=O)NCC2(N(C)C)CCCCC2)c1`, the inhibition is inactive: 4.6%.

On to `COc1cccc(C(=O)NCC2(N3CCCCC3)CCCCC2)c1`, for which the inhibition is inactive: 0.4%.

Regarding `Cc1ccccc1C(=O)NCC1(N2CCCCC2)CCCCC1`, the inhibition is inactive: -3.7%.

With `CN(C)C1CCCC1OC(=O)C(O)(c1ccccc1)c1ccccc1` (centres undefined), the inhibition was inactive: 5.3%.

For `CCN1CCCC(OC(=O)C2(O)c3ccccc3C=Cc3ccccc32)C1` (centres undefined), the inhibition was inactive: -13%.

As to `C=CCN1CCN(CCOC(=O)C(O)(c2ccccc2)c2ccccc2)CC1`, the inhibition was inactive: -1.6%.

Take `O=C(NCC1(N2CCCCC2)CCCCC1)c1cc([N+](=O)[O-])ccc1Cl`: the inhibition was inactive: 5.3%.

Regarding `CC(C)N1C(=O)CC2(CCN(CCOC(=O)C(O)(c3ccccc3)c3ccccc3)CC2)C1=O`, the inhibition is inactive: 8.1%.
